Reference: patent publication US20070020272A1, “Indirectly linked photosensitizer immunoconjugates, processes for the production thereof and methods of use thereof” (priority 2003, published 2007)

Tested on: NIH:OVCAR-5 cells
Assay: PDT efficacy in xenograft animal model of intra-peritoneal epithelial ovarian carcinoma
Assay type: in vivo, athymic Swiss female nude mice
Conditions: 20 J light i.p. 24 hours later, sacrifice day 21, FIG. 1
Experimental: PICs of the present invention comprising the tumoricidal antibody C225 indirectly linked to the photosensitizer CMA (referred to here as “C225-CMA”), were evaluated for efficacy in PDT using a xenograft animal model of intra-peritoneal epithelial ovarian carcinoma. Results obtained in this model system are reasonably predictive of treatment efficacy for the human condition. The following groups were analyzed:
Group 1: No Treatment; Group 2: Treatment with indirectly linked C225-CMA and activation with high a high light dose (high fluence rate); Group 3: Treatment with indirectly linked C225-CMA and activation with a low light dose (low fluence rate).
To test the effect of the PICs of the present invention in vivo, a known animal model system was utilized (Molpus et al., 1996a). This xenograft model of intra-peritoneal epithelial ovarian carcinoma has been noted to be desirable for measurement of the effects of PDT (Molpus et al., 1996a). This model manifests tumor derived from human ovarian carcinoma cells with all of the inherent biological properties of human disease. As has been previously described, the model is characterized, as in human patients, by diffuse solid tumor, ascites, parenchymal invasion, lymph-vascular space invasion, and neovascularization (Molpus et al., 1996a). […]

With C225-CMA as the substance, how does the “tumor burden as compared to the no treatment group” value (Group 2: 1 mg/kg PIC on day 10 and 20 after tumor cell injection, high fluence rate) read?
Its value is “reduced tumor burden”.

What about the “tumor burden as compared to the no treatment group” value (Group 3: 1 mg/kg PIC on day 10 and 20 after tumor cell injection, low fluence rate, p<0.02) of the same substance?
The value was “significantly reduced tumor burden”.
